Data: patent US8716480B2, “7-aryl-1,2,4-triazolo[4,3-a]pyridine derivatives and their use as positive allosteric modulators of mGluR2 receptors” (Janssen Pharmaceuticals, Inc., priority 2009, dated 2014)
Marks after values point to notes of the source that are not given here.

Chains of the proteins cited; added tags and fusions are not shown. Residues count along the entry.
UniProt Q14416, 19-872 limits assumed: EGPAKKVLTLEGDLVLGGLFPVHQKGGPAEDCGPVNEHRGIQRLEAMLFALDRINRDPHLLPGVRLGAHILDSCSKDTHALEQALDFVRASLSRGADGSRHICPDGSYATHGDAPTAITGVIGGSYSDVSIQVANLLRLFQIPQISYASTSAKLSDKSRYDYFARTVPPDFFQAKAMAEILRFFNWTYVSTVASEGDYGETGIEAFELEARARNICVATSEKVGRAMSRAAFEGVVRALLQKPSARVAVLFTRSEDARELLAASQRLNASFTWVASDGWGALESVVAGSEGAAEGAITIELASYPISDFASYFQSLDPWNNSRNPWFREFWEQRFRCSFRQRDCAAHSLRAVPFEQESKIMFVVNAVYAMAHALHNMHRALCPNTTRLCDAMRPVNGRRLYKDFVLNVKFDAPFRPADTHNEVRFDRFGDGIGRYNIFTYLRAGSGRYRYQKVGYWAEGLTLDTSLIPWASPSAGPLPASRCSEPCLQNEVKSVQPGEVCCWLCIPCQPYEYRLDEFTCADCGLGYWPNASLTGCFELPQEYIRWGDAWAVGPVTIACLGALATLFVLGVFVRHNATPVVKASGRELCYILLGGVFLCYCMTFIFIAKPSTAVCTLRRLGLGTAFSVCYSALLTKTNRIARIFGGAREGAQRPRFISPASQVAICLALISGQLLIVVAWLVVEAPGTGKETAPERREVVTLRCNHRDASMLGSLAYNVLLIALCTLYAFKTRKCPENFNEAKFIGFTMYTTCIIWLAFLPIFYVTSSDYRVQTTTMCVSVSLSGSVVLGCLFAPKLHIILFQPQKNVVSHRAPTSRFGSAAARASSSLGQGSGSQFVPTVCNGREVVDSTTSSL

tested on: male NMRI mice; assay: Phencyclidine (PCP)-induced hyperlocomotion in mice; details: PCP 5 mg/kg s.c., criterion total distance <5500 counts, not marked as oral

SMILES | ED50 PCP-Inh. [mg/kg]
Clc1cc(-c2ccn3c(CC4CC4)nnc3c2Cl)ccc1NC1CCOCC1 | 20

tested on: male Wiga Wistar rats; assay: Conditioned avoidance response (CAR) test; details: compound administered orally, estimated ED50 (n = 3 per dose; 4-fold separation between doses)

SMILES | ED50 CAR-Inh. (estimated)
CCOCc1nnc2c(Cl)c(-c3ccc(Oc4ccnc(C)c4)c(Cl)c3)ccn12 | 20*^a) mg/kg

target: human mGluR2 receptor (Homo sapiens, UniProt Q14416); assay: [35S]GTPγS binding assay (PAM); format: biochemical; details: in presence of glutamate at predetermined EC20; membranes from CHO cells transfected with human mGluR2

SMILES | GTPγS -hR2 PAM pEC50
Fc1cc(-c2ccn3c(CC4CC4)nnc3c2C(F)(F)F)ccc1NC1CC1 | 7.55
FC(F)(F)c1c(-c2ccc(N3CCOCC3)c(Cl)c2)ccn2c(CC3CC3)nnc12 | 7.15
Cc1ccc(Oc2ccc(-c3ccn4c(CC5CC5)nnc4c3Cl)cc2Cl)c(C)n1 | 7.91
Clc1c(-c2ccc(CN3CCOCC3)cc2)ccn2c(CC3CC3)nnc12 | 5.50
COc1ccc(CNc2ccc(-c3ccn4c(CC5CC5)nnc4c3C(F)(F)F)cc2F)cn1 | 8.3
Cc1ccc(Oc2ccc(-c3ccn4c(CC5CC5)nnc4c3C)cc2F)c(C)n1 | 7.11
CCc1cc(Oc2ccc(-c3ccn4c(CC5CC5)nnc4c3C(F)(F)F)cc2F)ccn1 | 7.44
FC1(F)CCN(Cc2ccc(-c3ccn4c(CC5CC5)nnc4c3C(F)(F)F)cc2Cl)C1 | 7.39
Cc1ccc(Oc2ccc(-c3ccn4c(CC5CC5)nnc4c3C3CC3)cc2F)c(C)n1 | 7.40
Clc1cc(-c2ccn3c(CC4CC4)nnc3c2Cl)ccc1NC1CCOCC1 | 6.82

Now from value to compound:

GTPγS -hR2 PAM pEC50 | SMILES
7.06 | Fc1cc(-c2ccn3c(CC4CC4)nnc3c2Cl)ccc1Oc1ccnc(C2CC2)c1
7.83 | Cc1cc(Oc2ccc(-c3ccn4c(CC5CC5)nnc4c3C(F)(F)F)cc2Cl)ccn1
6.55 | CCOCc1nnc2c(Cl)c(-c3ccc(Oc4ccnc(C)c4)c(Cl)c3)ccn12
5.53 | Clc1c(-c2ccc(N3CCOCC3)cc2)ccn2c(CC3CC3)nnc12
6.11 | CCOCc1nnc2c(Cl)c(-c3ccc(Oc4cc(C)nc(C)c4)c(F)c3)ccn12
7.34 | FC(F)(F)Cc1nnc2c(Cl)c(-c3ccc(Oc4ccccc4)cc3)ccn12
7.35 | CCOCc1nnc2c(C(F)(F)F)c(-c3ccc(Oc4ccnc(C)c4)c(Cl)c3)ccn12

same assay, conditions: in presence of glutamate at predetermined EC20; membranes from CHO cells transfected with human mGluR2; tested form: HCl

GTPγS -hR2 PAM pEC50 | SMILES
6.51 | FC1(F)CCN(Cc2ccc(-c3ccn4c(CC5CC5)nnc4c3C(F)(F)F)cc2)C1
